# Several values for one entry are separate records, joined by “and”; a condition that tells them apart may be missing. Equal entries are not always repeated. The list shows a part of the results, in another mix than the full data. Activity calls are given as the source filed them. Rule as the data show it: active = activity change below about -70%; inconclusive = no clear call, values can overlap the other calls; inactive = above that.
# Experiment: Toxoplasma gondii ME49Luc growth in HeLa cells, luciferase, no IFN-y, primary screen (AID 1259421)
# Conditions: T. gondii ME49Luc in HeLa, 72 h, hits give low values, concentration not given here
row,Structure (SMILES),"activity change, negative = inhibition"
1,CCC(=O)N(c1ccccc1)C1(COC)CCN(CCc2cccs2)CC1,inactive: 24%
2,CN(CCCl)CCCl,inactive: -34.7% and inactive: 15.1%

# Source: PubChem BioAssay AID1259421 (Broad Institute, 2018)
